Measured values published in US20030109418A1, “Methods for identifying compounds for inhibition of neoplastic lesions, and pharmaceutical compositions containing such compounds” (priority 1999, published 2003).
pIC50: −log10 of the molar value.

Target: T1, PDE peak A (PDE5) from SW480 cells (Homo sapiens, UniProt O76074)
T1 construct: endogenous in cells; host or cells: SW480 colon cancer cells, DEAE-Trisacryl M fraction
Experiment: cGMP hydrolysis inhibition, PDE peak A from SW480
Format: biochemical

Compound: O=C(O)C1CCN(c2nc(NCc3ccc4c(c3)OCO4)c3cc(Cl)ccc3n2)CC1 [Compound E4021]
- pIC50: 8.52
